Assay results: patent publication US7816520B2, “5,6-diphenyl-1,2,4-triazinic dimeric derivatives and the use thereof in the form of sun-protective agents” (Pierre Fabre Dermo-Cosmetique, priority 2004, dated 2010)

Columns and labels:
[1] = Spectral distribution in UVA and UVB, 290 nm to 400 nm; assay type: physicochemical; settings: for Absorption peaks: range from 290 nm to 400 nm
Description: The products tested are classified according to spectral distribution in UVA and UVB in a range from 290 nm to 400 nm. It is possible to differentiate them according to their spectral distribution: Products with a narrow spectrum: • Products absorbing in the range between 280 nm and 320 nm (UVB) • Products absorbing in the range between 320 nm and 400 nm (UVA) Products with a broad spectrum: • Products absorbing in UVB (280-320 nm) and UVA-II […] • Products covering UVB and UVA (280-400 nm).

[2] = Spectral characteristics: molar extinction coefficient and specific absorbance (UV spectrophotometry in ethyl acetate); assay type: physicochemical; settings: 10 μg/ml
Description: The calculation of the molar extinction coefficient (ε) is made from the Beer-Lambert law:
[formula] Wherein: • A=absorbance • I0=intensity of the incident light • I=intensity of the transmitted light • ε=molar extinction (or molar absorbance) coefficient in M^−1 cm^−1 • l=path length in cm • c=concentration in mol/l
The molar extinction coefficient can be expressed with respect to a given mass of the product. It thus makes it possible to be able to compare the coefficients of extinction between products for the same given quantity. This quantity is 1% by weight. The molar extinction coefficient thus becomes the specific absorbance (A1cm^1%).
It is expressed as follows:
[formula] Wherein: • A1cm^1%=specific absorbance • ε=molar extinction coefficient • M=molar mass
The spectral characteristics of the compounds in comparison with commercial filters at a concentration of 10 μg/ml are summarized in tables 2-1 and 2-2.
Procedure: The products are dissolved in ethyl acetate to a concentration of 10 μg/ml. The spectra are measured using a dual-beam spectrophotometer (Varian CARY 50 Scan) between 290 nm and 400 nm.

Molecule | Absorption peaks [1] [nm] | Maximum molar extinction coefficient UVA ([2]; UVA band) [M⁻¹ cm⁻¹] | Maximum specific absorbance UVA ([2]; A1cm^1%, UVA band) | Wavelength of maximum molar extinction coefficient UVA ([2]; the 'at ...' part of the cell) | Wavelength of maximum specific absorbance UVA ([2]; the 'at ...' part of the cell) [nm] | Spectral distribution (UV bands absorbed) ([1]; absorption spectra, FIGS. 1-3)
Cc1ccc(-c2nnc(-c3ccc(-c4nnc(-c5ccc(C)cc5)c(-c5ccc(C)cc5)n4)cc3)nc2-c2ccc(C)cc2)cc1 [WP39, 1,4-bis[5,6-(4,4′-dimethyl)-diphenyl-1,2,4-triazin-3-yl]benzene] | 335 |  |  |  |  | 
CCCCCCCCCCCCc1ccc(-c2nnc(-c3ccc(-c4nnc(-c5ccc(CCCCCCCCCCCC)cc5)c(-c5ccc(CCCCCCCCCCCC)cc5)n4)cc3)nc2-c2ccc(CCCCCCCCCCCC)cc2)cc1 [WP107, 1,4-bis[5,6-bis(4-dodecylphenyl)-1,2,4-triazine-3-yl]benzene] | 335 |  |  |  |  | 
1,4-bis[5,6-(4,4′-dihexyl)-diphenyl-1,2,4-triazin-3-yl]benzene [WP96] | 335 | 56000 | 638 | at 335 nm | 335 | absorb in UVB and UVA
